AlphaSeq binding of Ab-91 heavy chain variants to a spike HR2 peptide

Data: MIT Lincoln Laboratory AlphaSeq set, Engelhart et al. 2022, doi:10.1038/s41597-022-01779-4, as distributed in FLAb.

Target peptide (SARS-CoV-2 spike, HR2 region): PDVDLGDISGINAS

Each scFv is VL, a 15-residue (Gly4Ser)3 linker, VH, as in the parent Ab-91, and differs from it in the CDRs of the heavy chain only.
VL: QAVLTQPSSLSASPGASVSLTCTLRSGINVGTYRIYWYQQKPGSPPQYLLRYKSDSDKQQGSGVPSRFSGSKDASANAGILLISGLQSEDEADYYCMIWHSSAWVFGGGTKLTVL
VH: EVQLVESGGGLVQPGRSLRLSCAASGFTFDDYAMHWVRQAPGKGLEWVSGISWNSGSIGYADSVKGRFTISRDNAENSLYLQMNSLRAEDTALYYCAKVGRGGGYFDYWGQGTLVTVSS

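Phage display of a naive human antibody library on the peptide gave the parent. Variants in AAYL51 differ from the parent at up to three CDR positions; double and triple changes were sampled at random. In AlphaSeq, yeast of one mating type display the scFv and yeast of the other type display the target. Binding brings cells together so that they mate, and sequencing counts the barcode pairs among the diploids. A regression on co-assayed BCL2-family reference pairs converts the normalised counts of each replicate to an apparent Kd. Each pool was mated in three replicate cultures.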

Changes read parent residue, position, new residue, counted from the first residue of the VH shown.
Affinities are written as log10 Kd with Kd in nM; a lower number is a better binder.
"ND" means that the variant was in the library but no mating with the target was seen in that replicate; the authors take this as a sign of poor binding, and no number exists.
Parent in this assay: reference entry 1.86, copy in this library 0.88.
Background: pairings of library AAYL51 with three empty control strains gave a value in 21% of cases (median 4.54, 5th percentile 3.26). Values in that range, when seen in few replicates, are hard to tell from nonspecific mating.

| changes | replicates, log10 nM |
|---|---|
| I51K G100S Y108W | 5.66 ND ND |
| D30N H35N G104C | ND ND ND |
| S57A A61Y G100I | 4.66 ND ND |
| G50T A61P | 4.12 4.22 ND |
| F29N G50P S63G | ND ND ND |
| K65G V99G Y105W | ND ND 4.83 |
| F27L H35C V99I | 4.18 ND ND |
| T28Q Y105W | 5.11 3.85 4.28 |
| N54I I58H | ND 4.92 ND |
| G26Y M34C G59C | ND ND ND |
| D31N D62W | 1.85 1.77 1.54 |
| W53C A61I K65E | ND 5.06 4.76 |
| F27P D31I G50S | ND ND ND |
| Y32N N54H | 4.38 2.44 ND |
| Y32E W53S G104N | ND 5.19 ND |
| S57K G102R D107Q | ND 5.94 ND |
| G26Q W53V S55G | ND 4.57 5.38 |
| T28S Y60H Y105I | 4.64 ND 4.31 |
| I58Y G102P G104W | ND ND ND |
| T28I I58F G59R | ND ND ND |
| Y32M M34H D107Y | ND 5.71 ND |
| F27I S57H F106I | 4.57 6.17 3.37 |
| T28Y G50K Y105K | 3.88 ND ND |
| D62K V64R G102T | ND ND ND |
| F27N M34F D107Y | 5.07 4.74 ND |
| G59R Y60P G102R | ND ND 5.43 |

Second part, the sequence after the result:

| replicates, log10 nM | changes |
|---|---|
| ND 4.22 ND | Y32D F106I |
| 4.72 ND 4.03 | D30A Y32L D107G |
| 3.52 3.50 5.09 | D31T W53A |
| ND ND ND | N54R G56M S63T |
| 4.10 ND ND | Y32K V99M G102Y |
| 5.81 4.74 ND | G56L Y60L Y108T |
| 4.67 4.30 ND | T28V N54T V99G |
| 3.06 3.28 3.39 | T28N D30E D62M |
| 1.40 1.03 0.53 | T28K D31T A61D |
| 3.84 ND 5.23 | M34F H35R G103V |
| ND ND ND | G56T D62K V64L |
| ND ND ND | D62P S63I G103C |
| ND 5.87 4.62 | G26Y H35F K65I |
| 3.09 2.75 ND | D31R D62L F106N |
| ND ND ND | D30R G103S |
| 5.28 4.53 5.38 | Y32E V99M F106E |
| ND ND ND | Y60R K65M G104F |
| ND ND ND | N54F G102W Y108K |
| 0.93 0.87 0.35 | D30E A61S |
| ND ND ND | N54P G59K F106M |
| 3.81 ND ND | I51G S55F R101N |
| 6.44 5.04 5.44 | Y32G M34D V64P |
| 4.64 ND ND | I51G G56P F106M |
| ND ND ND | D30F M34S G104C |
| 5.60 4.74 4.47 | S55N G104M Y105S |
| ND ND ND | D62I G104K Y108F |

The first 6 variants above that were never detected:

| changes | replicates, log10 nM |
|---|---|
| D30N H35N G104C | ND ND ND |
| F29N G50P S63G | ND ND ND |
| G26Y M34C G59C | ND ND ND |
| F27P D31I G50S | ND ND ND |
| I58Y G102P G104W | ND ND ND |
| T28I I58F G59R | ND ND ND |